Literature values as cited in paper PMC10514295, “Imidazo[1,2-c]quinazolines as a novel and potent scaffold of α-glucosidase inhibitors: design, synthesis, biological evaluations, and in silico studies” (Scientific Reports, 2023).

Conditions: cited from earlier work

C[C@H]1O[C@H](O[C@H]2[C@H](O)[C@@H](O)[C@@H](O[C@H]3[C@H](O)[C@@H](O)C(O)O[C@@H]3CO)O[C@@H]2CO)[C@H](O)[C@@H](O)[C@@H]1N[C@H]1C=C(CO)[C@@H](O)[C@H](O)[C@H]1O (stereo partly shown) [Acarbose, acarbose]
systemic absorption: below 2 % of the administered dose
